Data reported in US4777182A, “6-Amidino-2-naphthyl 4-guanidinobenzoate derivatives and pharmaceutical composition containing them” (Torii & Co., Ltd., priority 1984, dated 1988).

Molecular target: Thrombin (Homo sapiens, UniProt P00734)
Settings: read-out: ID50, Thrombin; TAME hydrolysis

## N=C(N)c1ccc2cc(OC(=O)c3ccc(NC4=NCCN4)cc3)ccc2c1 [Compound No. 2, 6-amidino-2-naphthyl 4-(2-imidazolinyl)amino-benzoate]
  IC50: 3 µM
